{"source": "paper PMC10907714", "biological_target": "human EGFR-WT (human) (UniProt P00533)"}
{"substance": "human recombinant Epidermal Growth Factor (EGF) (ligand)", "values": [{"measurement": "EC50 of hEGF for recruitment of RlucII-SH2(SHIP1) to the plasma membrane (ebBRET with rGFP-CAAX), HEK293 cells with EGFR-WT, 10 min", "value": 0.21, "unit": "nM"}]}
